Test results from patent US10189836B2, “Therapeutic compounds, compositions and methods of use thereof” (Genentech, Inc., priority 2015, dated 2019).

test system: JAK1-dependent STAT6 phosphorylation downstream of IL-13 stimulation in BEAS-2B cells; assay: not given; details: not given

Structure (SMILES)	IC50
CN1CCN(C(=O)Cn2cc(Nc3nc4c(N5CC6CCC(C5)N6C(=O)C5CCC(F)(F)C5)cccn4n3)cn2)CC1 (stereo not drawn) [Example 58, 2-[4-[[8-[8-(3,3-difluorocyclopentanecarbonyl)-3,8-diazabicyclo[3.2.1]octan-3-yl]-[1,2,4]triazolo[1,5-a]pyridin-2-yl]amino]pyrazol-1-yl]-1-(4-methylpiperazin-1-yl)ethanone]	98 nM
CN1CCN(C(=O)Cn2cc(Nc3nc4c(N5CC6CCC(C5)N6S(=O)(=O)CCC(F)(F)F)cccn4n3)cn2)CC1 [Example 60, 1-(4-methylpiperazin-1-yl)-2-[4-[[8-[8-(3,3,3-trifluoropropylsulfonyl)-3,8-diazabicyclo[3.2.1]octan-3-yl]-[1,2,4]triazolo[1,5-a]pyridin-2-yl]amino]pyrazol-1-yl]ethanone]	24.5 nM
CN1CCN(C(=O)Cn2cc(Nc3nc4c(N5CC6CCC(C5)N6C(=O)Cc5ccc(F)cc5)cccn4n3)cn2)CC1 [Example 66, 2-(4-fluorophenyl)-1-[3-[2-[[1-[2-(4-methylpiperazin-1-yl)-2-oxo-ethyl]pyrazol-4-yl]amino]-[1,2,4]triazolo[1,5-a]pyridin-8-yl]-3,8-diazabicyclo[3.2.1]octan-8-yl]ethanone]	32.3 nM
CN1CCN(C(=O)Cn2cc(Nc3nc4c(N5C[C@H]6CC[C@@H](C5)[C@H]6OCc5cccc(CO)c5)cccn4n3)cn2)CC1 [Example 195, 1-(4-methylpiperazin-1-yl)-2-[4-[[8-[rac-(1S,5R)-8-[[3-(hydroxymethyl)phenyl]methoxy]-3-azabicyclo[3.2.1]octan-3-yl]-[1,2,4]triazolo[1,5-a]pyridin-2-yl]amino]pyrazol-1-yl]ethanone]	36.6 nM
CN1CCN(C(=O)Cn2cc(Nc3nc4c(N5CC6CCC(C5)N6S(=O)(=O)c5ccccc5)cccn4n3)cn2)CC1 [Example 61, 2-[4-[[8-[8-(benzenesulfonyl)-3,8-diazabicyclo[3.2.1]octan-3-yl]-[1,2,4]triazolo[1,5-a]pyridin-2-yl]amino]pyrazol-1-yl]-1-(4-methylpiperazin-1-yl)ethanone]	14.8 nM
CC(C(=O)N1CCN(C)CC1)n1cc(Nc2nc3c(N4CC5CCC(C4)N5C(=O)CCC(F)(F)F)cccn3n2)cn1 (stereo not drawn) [Example 104, 4,4,4-trifluoro-1-[3-[2-[[1-[1-methyl-2-(4-methylpiperazin-1-yl)-2-oxo-ethyl]pyrazol-4-yl]amino]-[1,2,4]triazolo[1,5-a]pyridin-8-yl]-3,8-diazabicyclo[3.2.1]octan-8-yl]butan-1-one]	66.9 nM
CN1CCN(C(=O)Cn2cc(Nc3nc4c(N5CC6CCC(C5)N6S(=O)(=O)Cc5ccccc5Cl)cccn4n3)cn2)CC1 [Example 161, 2-[4-[[8-[8-[(2-chlorophenyl)methylsulfonyl]-3,8-diazabicyclo[3.2.1]octan-3-yl]-[1,2,4]triazolo[1,5-a]pyridin-2-yl]amino]pyrazol-1-yl]-1-(4-methylpiperazin-1-yl)ethanone]	98.7 nM
CN1CCN(C(=O)Cn2cc(Nc3nc4c(N5CC6CCC(C5)N6C(=O)C5CSC5)cccn4n3)cn2)CC1 [Example 3, 1-(4-methylpiperazin-1-yl)-2-[4-[[8-[8-(thietane-3-carbonyl)-3,8-diazabicyclo[3.2.1]octan-3-yl]-[1,2,4]triazolo[1,5-a]pyridin-2-yl]amino]pyrazol-1-yl]ethanone]	36.8 nM
CN1CCN(C(=O)Cn2cc(Nc3nc4c(N5CC6CCC(C5)N6S(=O)(=O)Cc5cccc(Cl)c5)cccn4n3)cn2)CC1 [Example 165, 2-[4-[[8-[8-[(3-chlorophenyl)methylsulfonyl]-3,8-diazabicyclo[3.2.1]octan-3-yl]-[1,2,4]triazolo[1,5-a]pyridin-2-yl]amino]pyrazol-1-yl]-1-(4-methylpiperazin-1-yl)ethanone]	38.2 nM
CN1CCN(C(=O)Cn2cc(Nc3nc4c(N5CC6CCC(C5)N6C(=O)C5CCSCC5)cccn4n3)cn2)CC1 [Example 52, 1-(4-methylpiperazin-1-yl)-2-[4-[[8-[8-(tetrahydrothiopyran-4-carbonyl)-3,8-diazabicyclo[3.2.1]octan-3-yl]-[1,2,4]triazolo[1,5-a]pyridin-2-yl]amino]pyrazol-1-yl]ethanone]	223 nM
CN1CCN(C(=O)Cn2cc(Nc3nc4c(N5CC6CCCC(C5)N6C(=O)N5CC(C(F)(F)F)C5)cccn4n3)cn2)CC1 [Example 122, 1-(4-methylpiperazin-1-yl)-2-[4-[[8-[9-[3-(trifluoromethyl)azetidine-1-carbonyl]-3,9-diazabicyclo[3.3.1]nonan-3-yl]-[1,2,4]triazolo[1,5-a]pyridin-2-yl]amino]pyrazol-1-yl]ethanone]	48.4 nM
CSCCN1CCN(C(=O)Cn2cc(Nc3nc4c(N5CC6CCC(C5)N6C(=O)C5CC(C(F)(F)F)C5)cccn4n3)cn2)CC1 (stereo not drawn) [Example 198, 1-[4-(2-methylsulfanylethyl)-piperazin-1-yl]-2-[4-[[8-[8-[3-(trifluoromethyl)-cyclobutanecarbonyl]-3,8-diazabicyclo[3.2.1]octan-3-yl]-[1,2,4]triazolo[1,5-a]pyridin-2-yl]amino]pyrazol-1-yl]ethanone]	33.4 nM
CN1CCN(C(=O)Cn2cc(Nc3nc4c(N5CC6CCC(C5)N6S(=O)(=O)c5cccs5)cccn4n3)cn2)CC1 [Example 112, 1-(4-methylpiperazin-1-yl)-2-[4-[[8-[8-(2-thienylsulfonyl)-3,8-diazabicyclo[3.2.1]octan-3-yl]-[1,2,4]triazolo[1,5-a]pyridin-2-yl]amino]pyrazol-1-yl]ethanone]	25 nM

test system: JAK1-dependent STAT6 phosphorylation downstream of IL-13 stimulation in BEAS-2B cells; assay: JAK1 pathway assay in BEAS-2B cells (IL-13-pSTAT6); details: Homo sapiens, read-out: IL13-pSTAT6 BEAS2B IC50

Structure (SMILES)	IC50
CN1CCN(C(=O)Cn2cc(Nc3nc4c(C5=CC6CCC(C5)N6C(=O)OCC(F)(F)F)cccn4n3)cn2)CC1 (stereo not drawn) [Example 7, 2,2,2-trifluoroethyl 3-[2-[[1-[2-(4-methylpiperazin-1-yl)-2-oxo-ethyl]pyrazol-4-yl]amino]-[1,2,4]triazolo[1,5-a]pyridin-8-yl]-8-azabicyclo[3.2.1]oct-3-ene-8-carboxylate]	181 nM
CN1CCN(C(=O)Cn2cc(Nc3nc4c(N5CC6CCC(C5)N6S(=O)(=O)CC#N)cccn4n3)cn2)CC1 [Example 183, 2-[[3-[2-[[1-[2-(4-methylpiperazin-1-yl)-2-oxo-ethyl]pyrazol-4-yl]amino]-[1,2,4]triazolo[1,5-a]pyridin-8-yl]-3,8-diazabicyclo[3.2.1]octan-8-yl]sulfonyl]acetonitrile]	81.5 nM
